Experimental data taken from paper PMC5554889, “Development of a Potent Inhibitor of the Plasmodium Proteasome with Reduced Mammalian Toxicity” (Journal of Medicinal Chemistry, 2017).

Chains of the proteins cited; added tags and fusions are not shown. Lines headed by an entry give the natural chain unless they say otherwise; changes in a name come on top.
UniProt P20618: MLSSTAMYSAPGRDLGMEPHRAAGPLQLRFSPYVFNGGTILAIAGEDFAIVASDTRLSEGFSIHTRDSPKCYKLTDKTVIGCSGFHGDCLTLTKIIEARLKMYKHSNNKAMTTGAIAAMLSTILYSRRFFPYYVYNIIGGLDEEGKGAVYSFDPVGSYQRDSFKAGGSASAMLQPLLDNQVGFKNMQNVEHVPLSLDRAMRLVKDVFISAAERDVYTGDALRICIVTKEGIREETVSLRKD
UniProt P28074: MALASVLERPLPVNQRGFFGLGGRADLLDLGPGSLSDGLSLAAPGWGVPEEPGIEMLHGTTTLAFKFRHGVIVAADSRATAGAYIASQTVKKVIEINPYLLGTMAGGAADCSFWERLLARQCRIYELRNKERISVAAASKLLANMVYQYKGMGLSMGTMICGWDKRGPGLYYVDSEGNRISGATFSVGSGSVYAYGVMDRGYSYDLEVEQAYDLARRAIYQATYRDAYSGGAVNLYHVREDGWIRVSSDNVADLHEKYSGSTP
UniProt A0A5K1K7U1, entry or part of it: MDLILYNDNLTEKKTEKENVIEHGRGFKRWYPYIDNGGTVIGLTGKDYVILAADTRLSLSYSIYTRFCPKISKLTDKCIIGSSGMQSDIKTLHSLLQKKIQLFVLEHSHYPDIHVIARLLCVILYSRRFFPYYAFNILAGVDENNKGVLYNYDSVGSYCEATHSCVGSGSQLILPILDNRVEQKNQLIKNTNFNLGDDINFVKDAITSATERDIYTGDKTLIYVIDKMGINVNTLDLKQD
UniProt Q8IJT1, entry or part of it: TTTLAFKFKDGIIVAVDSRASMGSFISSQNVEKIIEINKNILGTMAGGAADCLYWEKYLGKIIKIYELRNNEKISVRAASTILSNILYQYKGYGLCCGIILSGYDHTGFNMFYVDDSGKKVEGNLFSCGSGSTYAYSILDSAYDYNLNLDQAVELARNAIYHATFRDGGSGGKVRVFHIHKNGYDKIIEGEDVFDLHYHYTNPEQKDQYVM

Columns and labels:
c20S = target: T1, c20S (Homo sapiens, UniProt P20618+P28074); assay: Inactivation kinetics, c20S (200 μM Suc-LLVY-AMC); type: biochemical; details: kinact/Ki
T1 construct: purchased Boston Biochem
Description: (§1) To calculate inhibition constants, activity assays were performed as described above except using 200 μM Suc-LLVY-AMC substrate. The rate of AMC release was calculated in the presence of serial dilution of each inhibitor. The rate of product formation was calculated at 30 min intervals for 4 h and normalized to activity DMSO control to calculate inactivation curves. Kobs values for each inhibitor concentration were calculated from inactivation curves, and inhibition constants KI and kinact were calculated by nonlinear regression of Kobs and inhibitor concentration using GraphPad Prism 6 software.

Pf20S = Pf20S (Plasmodium falciparum, UniProt A0A5K1K7U1+Q8IJT1); assay: Inactivation kinetics, Pf20S (200 μM Suc-LLVY-AMC); type: biochemical
Description: as §1

HepG2 cells = assay: HepG2 cytotoxicity assay; type: cell-based, human; details: D-amino acid at P3; comparator not given

| Structure (SMILES) | fold loss in potency to c20S (c20S; relative to carmaphycin B) [fold] | kinact (Pf20S) [s⁻¹] | fold reduced toxicity (HepG2 cells) | fold loss in potency to the human c20S proteasome (c20S; relative to analog 1) [fold] |
| --- | --- | --- | --- | --- |
| CCCCCC(=O)N[C@H](C(=O)N[C@@H](CCCC)C(=O)N[C@@H](CC(C)C)C(=O)[C@@]1(C)CO1)C(C)C [analog 1] | 3 | 0.00176 | – | – |
| CCCCCC(=O)N[C@@H](C(=O)N[C@@H](CCCC)C(=O)N[C@@H](CC(C)C)C(=O)[C@@]1(C)CO1)C(C)C [analog 18] | – | 5.88e-05 | up to 100 fold | 100 |
